Experiment [1] has as its target human Fcγ receptor IIa (hFcγRIIa) (human) (UniProt P12318). Description: SPR; CM5 chip with anti-His-tag antibodies (~600 RU); 5 μg/mL His-tagged receptor captured; 100 μg/mL ICI or control flowed for 60 s; response read 5 s before the end of the injection; 25 °C. Background: In SPR one partner is held on a chip, and binding of the other changes the refractive index at the surface.

Chains of the proteins cited; added tags and fusions are not shown. Residues count along the entry.
UniProt P12318, 34-217: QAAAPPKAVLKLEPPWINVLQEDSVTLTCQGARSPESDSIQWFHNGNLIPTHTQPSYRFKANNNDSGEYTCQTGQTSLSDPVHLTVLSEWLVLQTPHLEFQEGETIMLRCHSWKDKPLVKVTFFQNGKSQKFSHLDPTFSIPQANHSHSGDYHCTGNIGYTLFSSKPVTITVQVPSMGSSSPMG
UniProt P31994, 43-217: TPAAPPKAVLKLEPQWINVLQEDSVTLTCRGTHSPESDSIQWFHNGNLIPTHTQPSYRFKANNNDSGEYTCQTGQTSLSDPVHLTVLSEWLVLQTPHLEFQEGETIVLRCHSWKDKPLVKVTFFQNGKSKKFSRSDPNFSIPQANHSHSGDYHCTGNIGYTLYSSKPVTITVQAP

The target of experiment [2] is human Fcγ receptor IIb/c (hFcγRIIb/c) (human) (UniProt P31994). Described as above.

In experiment [1], “IgG4k from human myeloma plasma (IgG4 MC) (antibody)” displayed a response units, mean of three runs of 27 RU; a response units, run 1 of 22 RU; a response units, run 2 of 45 RU. In experiment [2], this substance displayed a response units, mean of three runs of 49 RU; a response units, run 1 of 44 RU; a response units, run 2 of 65 RU; a response units, run 3 of 38 RU.

In experiment [1], “IgG1k from human myeloma plasma (IgG1 MC) (antibody)” came in with a response units, mean of three runs of 133 RU; a response units, run 1 of 142 RU; a response units, run 2 of 144 RU; a response units, run 3 of 115 RU. Besides, in experiment [2], the response units, mean of three runs was 71 RU; the response units, run 1 is 81 RU; the response units, run 2 was determined as 71 RU; the response units, run 3 stood at 60 RU.
